This is a sample that favours compounds with a hit; in the whole collection about 2.3% have one here.
Rango dissoc inh: qHTS Assay for Inhibitors of RanGTP induced Rango (Ran-regulated importin-beta cargo) - Importin beta complex dissociation | AID 540253, 2011 | Potency, µM (series often up to 46.1 µM), for inactives: at the highest dose activity change, negative = inhibition | Snurportin-1 (Homo sapiens) + GTP-binding nuclear protein Ran (Homo sapiens) + Importin … | hit rate 0.071% among 340,000 | Biochemical FRET Rango-importin beta, RanGTP-induced dissociation; calls by dose curve; note: % of control where 0% means no effect; nearly all actives have a fitted effect of over 45% in size
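Compounds sat 5 min at room temperature with 0.1 uM Rango biosensor plus 0.25 uM importin beta, then FRET pre-read. RanGTP-RCC1 (0.6 uM Ran, 2mM GTP, 0.2 uM RCC1) added for 45 min, and the CFP/YFP post-read measured blocked complex dissociation.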
Nrf2 activator: qHTS of Nrf2 Activators. AREc32 ARE-luciferase reporter (MCF7-derived line), luminescence, 24 h. Potency, µM (series often up to 46.1 µM), without a hit: at the top dose activation, most hits filed as activators. hit rate 0.31% among 410,000. AID 624171, 2012; note: % of control where 0% means no effect; nearly all actives have a fitted effect of over 65% in size
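AREc32_Fluc, 1000 cells/well, OPTI-MEM + 5% FBS, o/n 37 deg C 5% CO2; 23 nL cpd by pin tool, 24 hr; Steady-Glo 30 min RT, luminescence.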
A549 viability: Nrf2 qHTS screen for inhibitors: counterscreen for cytotoxicity | A549 ARE-Fluc cells, CellTiter-Fluor viability, 18-24 h | Potency, µM (series often up to 46 µM), inactives show top-dose activity change, negative = cytotoxicity, actives largely listed as inhibitors | hit rate 0.16% among 390,000; note: % is set by controls: 0 for no effect and ±100 for the full control effect
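A549 ARE_Fluc cells in 5% FBS OPTI-MEM were exposed to compounds in concentration-response for 18-24 h at 37 deg C. Viability was read by CellTiter-Fluor fluorescence (Ex 405/Em 525) after 30 min, before the luciferase read.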
Rango-impB inh: qHTS Assay for Inhibitors of Rango (Ran-regulated importin-beta cargo) - Importin beta complex formation; Importin subunit beta-1 (Homo sapiens), Q14974; Rango CFP/YFP FRET sensor + importin beta, 45 min; Potency, µM (doses to about 92.2 µM), inactives show top-dose inhibition of complex formation; hit rate 0.031% among 340,000; calls by dose curve;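 note: 0% = DMSO wells and 100% = buffer wells lacking importin beta; nearly all actives have a fitted effect of over 15% in size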
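Inhibition scored from the CFP 486 nm/YFP 530 nm FRET ratio 45 min after adding 0.125 microM importin beta to 50 nM Rango biosensor preincubated 5 min with compound (room temperature, PBS with DTT, Tween-20, BSA). No-importin wells as positive control.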
Nrf2 block: Nrf2 qHTS screen for inhibitors | hit rate 2.1% among 360,000 | Potency, µM (top dose mostly 46 µM), inactives show top-dose activity change, negative = inhibition, hits mostly inhibitors | A549 ARE-Fluc reporter, luciferase luminescence, 18-24 h; note: % is set by controls: 0 for no effect and ±100 for the full control effect; nearly all actives have a fitted effect of over 60% in size
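Quantitative HTS in A549 cells stably bearing an antioxidant response element-firefly luciferase construct. Inhibition of Nrf2-driven transcription was scored by luminescence after 18-24 h of compound exposure at 37 °C.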
An asterisk follows results filed as active; ? = inconclusive; . = no result given; [ ] = remark or other dose. Unless noted, calls come from the whole dose curve; as a rule, active = well fitted curve in the direction sought with a large enough effect; inconclusive = small, poorly fitted or top-dose-only effect, or another doubt; inactive = no such curve, though single readings can be large; an effect the other way counts as inactive or inconclusive. Potency is the fitted concentration of half-maximal effect.

By UniProt entry, the sequences of proteins in these tests, tags left out.
Importin subunit beta-1 (Homo sapiens), Q14974, UniProt Q14974, whole entry, looked up: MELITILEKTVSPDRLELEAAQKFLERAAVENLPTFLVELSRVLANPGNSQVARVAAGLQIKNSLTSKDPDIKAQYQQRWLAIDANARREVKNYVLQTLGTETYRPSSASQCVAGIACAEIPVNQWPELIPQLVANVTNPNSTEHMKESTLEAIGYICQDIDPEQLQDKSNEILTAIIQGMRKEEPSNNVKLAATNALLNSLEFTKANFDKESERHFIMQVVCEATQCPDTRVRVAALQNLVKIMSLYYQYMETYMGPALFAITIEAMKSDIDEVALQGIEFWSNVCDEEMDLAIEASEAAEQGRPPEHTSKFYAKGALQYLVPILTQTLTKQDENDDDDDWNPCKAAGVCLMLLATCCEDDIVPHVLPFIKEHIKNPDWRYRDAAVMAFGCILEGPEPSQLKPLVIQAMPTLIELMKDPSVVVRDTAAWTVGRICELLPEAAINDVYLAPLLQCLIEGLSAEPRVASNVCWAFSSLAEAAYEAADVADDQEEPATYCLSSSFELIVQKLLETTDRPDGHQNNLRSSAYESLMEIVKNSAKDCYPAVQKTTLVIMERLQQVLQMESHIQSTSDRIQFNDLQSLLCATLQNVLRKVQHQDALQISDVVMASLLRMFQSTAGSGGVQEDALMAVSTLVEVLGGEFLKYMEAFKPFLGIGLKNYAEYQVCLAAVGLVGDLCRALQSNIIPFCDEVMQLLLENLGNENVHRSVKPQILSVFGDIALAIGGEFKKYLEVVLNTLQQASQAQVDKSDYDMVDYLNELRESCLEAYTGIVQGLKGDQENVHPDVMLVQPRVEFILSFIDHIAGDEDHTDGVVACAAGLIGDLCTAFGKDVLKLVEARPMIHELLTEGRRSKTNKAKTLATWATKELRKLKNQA

SMILES	Rango dissoc inh	Nrf2 activator	A549 viability	Rango-impB inh	Nrf2 block
Cn1c(=O)n(C)c2cc(NS(=O)(=O)c3ccc(C(C)(C)C)cc3)ccc21	3.5%	4.4%	-6.3%	-1.6%	10.3µM*
CCc1cccc(NS(=O)(=O)c2ccc3c(c2)n(C)c(=O)n3C)c1	-1.4%	2.2%	-5.6%	2.4%	13µM*
CCc1ccc(S(=O)(=O)Nc2cccc(C3OCCCO3)c2)cc1	8.8%	-0.2%	-1.8%	-0.2%	10.3µM*
O=C1c2ccccc2C(=O)N1c1ccccc1O	.	.	1.7%	.	-8.9%
Nc1nc(Cl)cc(N2CCC(c3cc(-c4ccc(Cl)cc4Cl)n[nH]3)CC2)n1	-23.5%	4.0%	?	?	10.3µM*
CC12CCCC[C@@H]1CCC1C2CCC2(C)C1CC[C@@]2(O)CNCCO (some centres undefined)	5.1%	4.0%	0.6%	-1.1%	-10.9%
O=C(CN1C(=O)COc2ccc(S(=O)(=O)N3CCCCCC3)cc21)Nc1cccc(Cl)c1	.	0.3%	18.4µM*	.	?
CSc1cccc(NC(=O)CN2C(=O)COc3ccc(Cl)cc32)c1	.	4.1%	0.8%	.	16.4µM*
COc1ccc2occ(CC(=O)Nc3ccc(S(=O)(=O)Nc4nc(C)cc(C)n4)cc3)c2c1	.	2.4%	-3.4%	.	17.7%
CCOC(=O)Nc1ccc2c(COC(=O)CNS(=O)(=O)c3cccc(Br)c3)cc(=O)oc2c1	3.9%	2.1%	0.5%	1.1%	5.9%
COc1cc(NS(=O)(=O)c2ccc3c(c2)CC(=O)N3)cc(OC)c1OC	.	-0.3%	-1.4%	.	4.6%
CCOc1ccc(S(=O)(=O)c2c(C(=O)c3ccc(C)cc3)cnc3cc4c(cc23)OCCO4)cc1	-9.4%	1.8%	11.9%	?	-12.3%
Cc1ccc(C(=O)c2cnc3cc4c(cc3c2S(=O)(=O)c2ccccc2)OCCO4)cc1	-23.4%	12.6µM*	2.7%	?	?
COc1ccc(C2Nc3ccccc3C(=O)N2Cc2ccccc2)cc1COc1cccc(C)c1 (centres undefined)	.	.	-3.4%	.	-21.3%
Cc1ccccc1NC(=O)/C=C/c1ccc([N+](=O)[O-])s1	0.651µM*[inhibitor]	?	?	?	?
Cc1cc(C)cc(NC(=O)/C=C/c2ccc([N+](=O)[O-])s2)c1	1.03µM*	?	-5.7%	?	16.1%
O=C(/C=C/c1ccc([N+](=O)[O-])s1)N1CCCC1	-23.8%	?	-22.9%	0.7%	20.6µM*
O=C(/C=C/c1ccc([N+](=O)[O-])s1)N1CCCCC1	-23.6%	?	-5.5%	-5.9%	-1.9%
Cc1ccccc1NC(=O)/C=C/c1cccs1	15.7%	?	-3.2%	-1.3%	?
Cc1ccc(-c2cc(C(F)(F)F)n3nc(C(=O)Nc4ccc(Cl)c(C(F)(F)F)c4)cc3n2)cc1	.	-0.5%	-9.5%	.	1.3%
N#C/C(=N\Nc1cc(Cl)cc(Cl)c1)c1nnc2n1CCCCC2	1.1%	-0.6%	?	-0.4%	18.4µM*
Cc1cccc(NC(=O)CN(C)C(=O)c2ccc(N3CCCCCC3)c([N+](=O)[O-])c2)c1C	-4.1%	0.6%	-13.1%	-0.6%	?
CCN(CC(=O)Nc1c(F)cccc1F)C(=O)c1ccc(N2CCCCC2)c([N+](=O)[O-])c1	-14.5%	0.1%	-12.5%	2.0%	16.4µM*
CCOc1ccccc1NC(=O)CN1C(=O)CC(c2ccc(OC)c(OC)c2)Sc2ccccc21 (centres undefined)	.	-0.9%	-5.9%	.	?
CCN(CC)S(=O)(=O)c1ccc2c(c1)N(CC(=O)N(C)Cc1ccccc1)C(=O)CO2	.	0.1%	-8.6%	.	-11.6%

Next section:
SMILES	Rango dissoc inh	Nrf2 activator	A549 viability	Rango-impB inh	Nrf2 block
C/C(=N/OC(=O)c1ccc(C(F)(F)F)cc1)c1oc(C)nc1C	5.7%	0.3%	7.5%	4.6%	3.8%
COc1ccc(C(C#N)=C2C=CC(=NO)C=C2)cc1	-10.4%	1.26µM*	-10.4%	?	-3.5%
COc1ccc(/C=N/NC(=O)c2ccc3ccccc3c2)cc1OS(=O)(=O)c1ccc(NC(C)=O)cc1	-11.7%	-0.1%	-27.7%	-0.6%	11.6µM*
COc1ccc(C=O)cc1OS(=O)(=O)c1ccc(NC(C)=O)cc1	0.2%	0.3%	10.1%	-5.5%	10.5%
O=S(=O)(c1ccc(Cl)cc1)N1CCCC1c1nc(-c2ccc(Cl)cc2)no1 (centres undefined)	-0.2%	-0.4%	-3.5%	-1.9%	-24.2%
O=S(=O)(c1ccccc1Cl)N1CCCC1c1nc(-c2ccccc2Cl)no1 (centres undefined)	7.1%	-0.1%	-16.1%	-0.6%	16.4µM*
COc1ccc(OC)c(CNc2ncnc3onc(-c4ccc(Cl)cc4)c23)c1	.	0.1%	13.2%	.	-4.2%
Cc1ccc(N2CCN(C(=O)CCc3c(C)nc4ncnn4c3C)CC2)c(C)c1	.	0.5%	1.4%	.	18.4µM*
O=C(Cn1cnc2ccccc21)N/N=C/C(Br)=C/c1ccccc1	5.4%	7.08µM*	-5.4%	-1.9%	-20.8%
CC1=NNC(=O)C1CC(=O)N/N=C/C(Br)=C/c1ccccc1 (centres undefined)	20.7%	?	-7.4%	-2.1%	1.0%
O=C(N/N=C/C(Br)=C/c1ccccc1)c1n[nH]c2c1CCC2	-11.7%	22.4µM*	-8.0%	0.6%	-10.2%
O=C(N/N=C/C(Br)=C/c1ccccc1)c1ccccc1F	-11.2%	12.6µM*	2.9%	3.2%	?
CC1C(=O)NN=C1C(=O)N/N=C\C(Br)=C\c1ccccc1 (centres undefined)	1.6%	11.2µM*	-1.6%	3.4%	?
CCOC(=O)c1c(C)n(-c2ccccc2)c2ccc(OC(=O)c3cc(OC)cc(OC)c3)cc12	.	0.8%	-1.5%	.	12.7%
O=C(N/N=C/C(Br)=C/c1ccccc1)c1cccs1	16.8%	10µM*	?	-8.3%	?
CN1C(=S)N(c2cccnc2)C(=O)/C1=C\c1ccc(N(C)C)cc1	17.4%	0.8%	-19.0%	4.7%	-4.8%
Cc1c(N2C(=O)/C(=C\c3ccc(N(C)C)cc3)N(C)C2=S)c(=O)n(-c2ccccc2)n1C	1.5%	0.3%	14.6µM*	51.7µM*	-8.6%
CCOC(=O)C(=Cc1ccc(-n2cncn2)cc1)C(=O)OCC	10.7%	?	?	-2.0%	18.4µM*
CC(C)Cn1c(SCc2cccc(F)c2)nc2ccsc2c1=O	.	6.2%	18.6%	.	-12.5%
COc1ccc2nc(NC(=O)c3nc(S(=O)(=O)Cc4ccccc4F)ncc3Cl)sc2c1	.	10µM*	?	.	3.0%
COc1ccccc1C(=O)Nc1nc2ccccc2s1	12.4%	-6.1%	3.1%	0.4%	6.51µM*
COc1ccc2nc(NC(=O)c3ccccc3F)sc2c1	0.3%	?	7.3%	-4.5%	1.3µM*

2 of the compounds above, bar-delimited:
compound | Rango dissoc inh | Nrf2 activator | A549 viability | Rango-impB inh | Nrf2 block
O=S(=O)(c1ccc(Cl)cc1)N1CCCC1c1nc(-c2ccc(Cl)cc2)no1 (centres undefined) | -0.2% | -0.4% | -3.5% | -1.9% | -24.2%
O=C1c2ccccc2C(=O)N1c1ccccc1O | . | . | 1.7% | . | -8.9%

Reprinted at random: 4 entries already listed.
SMILES	Rango dissoc inh	Nrf2 activator	A549 viability	Rango-impB inh	Nrf2 block
CCOC(=O)c1c(C)n(-c2ccccc2)c2ccc(OC(=O)c3cc(OC)cc(OC)c3)cc12	.	0.8%	-1.5%	.	12.7%
O=C(Cn1cnc2ccccc21)N/N=C/C(Br)=C/c1ccccc1	5.4%	7.08µM*	-5.4%	-1.9%	-20.8%
CC1C(=O)NN=C1C(=O)N/N=C\C(Br)=C\c1ccccc1 (centres undefined)	1.6%	11.2µM*	-1.6%	3.4%	?
CCOC(=O)C(=Cc1ccc(-n2cncn2)cc1)C(=O)OCC	10.7%	?	?	-2.0%	18.4µM*

Source: PubChem (National Center for Advancing Translational Sciences (NCATS))
